Source: patent publication US20110098554A1, “Monitoring of convection enhanced drug delivery” (priority 2004, published 2011)

Assay: CED into rat striatum, convection monitored by T1-weighted MRI of infusates mixed with Gd-DTPA
Description: The resultant solution was infused into the striatum of normal Sprague-Dawley (SD) rats (males, 250-300 grams). T1-weighted MR images were acquired immediately post treatment to assess the extent of convection. Additionally, T2-weighted and diffusion-weighted MR images were acquired 24 hours post treatment to assess the response of the tissue and its correlation to the extent of convection.
Under full anesthesia, a midline scalp incision was made to identify the bregma. A 1 mm burr hole was made in the right region of the skull, 3 mm anterior and 2 mm lateral to the bregma. A 33-gauge needle attached to a 1000 μl syringe (Gastight; Hamilton) was placed stereotactically 5.5 mm deep into the striatum. The infusion was performed using a BASI syringe pump at a rate of 1 μl/min for a duration ranging from […].
The volume (in cm^3) of the composition distribution was calculated from the T1-weighted MR images acquired immediately post CED treatment. Region-of interests (ROIs) were defined over the entire enhancing region in each slice (excluding the ventricles). The number of pixels in the ROIs was counted and multiplying by the volume of a single pixel. Equation 1 was used to calculate ADC maps of the diffusion-weighted MR images.

Question: For “Gadolinium-diethylenetriamine pentaacetic acid [Gd-DTPA]”, which “residual contrast agent in the brain (T1-weighted MRI)” value (24 hours post treatment) is on record?
Answer: no residual

Question: And the “clearance of significant percentage from the tissue, time post infusion” value (sequential T1-weighted MR images, 3 cases)?
Answer: 2 to 4 h
